The list shows a part of the results, in another mix than the full data. The source made the active and inactive calls. No stated cut-off is given here; in the data, active means inhibition above about 30%; inactive means the rest.
Each compound was assayed against Coagulation factor XII (Homo sapiens) (UniProt P00748) (assay: human FXIIa protease inhibitors, primary screen, biochemical, single well (AID 701;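 further: 0% = enzyme with vehicle only and 100% = no enzyme blank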)). Conditions: purified human FXIIa, AMC substrate fluorescence, 2 h; at 10 µM; active compounds read high.

Sequences of proteins named here, by UniProt entry; tags and fusion partners are left off. A change or cut given only in a name is not applied to a line headed by its entry.
UniProt P00748: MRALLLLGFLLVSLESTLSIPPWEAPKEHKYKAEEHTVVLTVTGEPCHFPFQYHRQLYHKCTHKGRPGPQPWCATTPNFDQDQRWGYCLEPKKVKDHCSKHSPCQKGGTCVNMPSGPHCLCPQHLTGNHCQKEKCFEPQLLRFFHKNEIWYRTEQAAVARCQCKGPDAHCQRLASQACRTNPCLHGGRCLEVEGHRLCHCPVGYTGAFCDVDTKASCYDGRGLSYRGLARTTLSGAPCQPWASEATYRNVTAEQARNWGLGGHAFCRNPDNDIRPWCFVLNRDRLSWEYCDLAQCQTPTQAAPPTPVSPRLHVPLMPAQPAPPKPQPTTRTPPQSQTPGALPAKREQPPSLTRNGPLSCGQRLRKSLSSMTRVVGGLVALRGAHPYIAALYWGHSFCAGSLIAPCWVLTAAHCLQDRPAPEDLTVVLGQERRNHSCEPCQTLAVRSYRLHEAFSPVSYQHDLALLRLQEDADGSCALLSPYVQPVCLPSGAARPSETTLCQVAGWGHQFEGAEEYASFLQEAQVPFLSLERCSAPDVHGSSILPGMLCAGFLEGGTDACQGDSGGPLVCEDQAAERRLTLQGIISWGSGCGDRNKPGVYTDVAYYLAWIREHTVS

Structure (SMILES) | inhibition
CCC(C)N(CC(C)C)C(=S)SC(NC(C)=O)C(Cl)(Cl)Cl (stereo not drawn) | inactive: -0.83%
CC1(CBr)Cn2c(nc3ccccc3c2=O)S1 (stereo not drawn) | inactive: -14.3%
Cc1cccc(OCC(=O)OC2CN3CCC2CC3)c1 (stereo not drawn) | inactive: 2.66%
COC(=O)c1cc2c(s1)N=C(c1ccccc1)N(C)P2(=O)N1CCOCC1 (stereo not drawn) | inactive: 7.73%
O=[N+]([O-])c1cccc2n[nH]nc12 | inactive: -9.12%
CC1CCN(C(=O)Oc2c(Cl)cc(Cl)c3cccnc23)CC1 | inactive: -18.1%
CCOP(=O)(Nc1ccccc1)OCC | inactive: 1.28%
Oc1ccccc1CNc1ccccn1 | inactive: 10.2%

— PubChem BioAssay AID701 (PCMD, 2007)
